Measurements: patent US20070225248A1 (Clavis Pharma AS, priority 2006, published 2007)

Tested on: Colon 6044 (human colon carcinoma)
Test: Antitumour activity in Co6044 after oral administration (Table 3)
Details: all tested doses (120, 180, 240 mg/kg)

## Nc1ccn([C@@H]2O[C@H](CO)[C@@H](O)C2(F)F)c(=O)n1 [Gemcitabine, 2′,2′-difluorodeoxycytidine, reference compound]
  toxicity after oral administration (in words): toxic at all tested doses
